Measured values taken from ChEMBL document CHEMBL5257017, “Small Molecule CXCR3 Antagonists” (J Med Chem, 2016).

Sequences of proteins named here, by UniProt entry; tags and fusion partners are left off.
UniProt P25024, whole entry: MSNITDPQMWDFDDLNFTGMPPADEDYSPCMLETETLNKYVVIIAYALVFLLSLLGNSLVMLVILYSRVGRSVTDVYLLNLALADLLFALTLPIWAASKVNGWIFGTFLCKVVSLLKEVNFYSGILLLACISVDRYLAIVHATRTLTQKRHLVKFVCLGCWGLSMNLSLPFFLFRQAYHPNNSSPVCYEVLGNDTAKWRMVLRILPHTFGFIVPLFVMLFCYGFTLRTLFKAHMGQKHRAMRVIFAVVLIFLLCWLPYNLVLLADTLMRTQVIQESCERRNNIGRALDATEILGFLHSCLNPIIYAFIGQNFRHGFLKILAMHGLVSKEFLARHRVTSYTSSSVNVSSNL

Molecular target: C-X-C chemokine receptor type 1 (Homo sapiens, UniProt P25024)
Assay: Antagonist activity at CXCR1 (unknown origin)

IC50: 0.251 µM
SMILES: Cc1ccc(C(Nc2c(Nc3cccc(C(=O)N(C)C)c3O)c(=O)c2=O)C2(C)CCCO2)o1 (stereo unspecified)
